Source: paper PMC11649918, “Development of a RIPK1 degrader to enhance antitumor immunity” (Nature Communications, 2024)

Chains of the proteins cited; added tags and fusions are not shown.
UniProt Q13546, whole entry: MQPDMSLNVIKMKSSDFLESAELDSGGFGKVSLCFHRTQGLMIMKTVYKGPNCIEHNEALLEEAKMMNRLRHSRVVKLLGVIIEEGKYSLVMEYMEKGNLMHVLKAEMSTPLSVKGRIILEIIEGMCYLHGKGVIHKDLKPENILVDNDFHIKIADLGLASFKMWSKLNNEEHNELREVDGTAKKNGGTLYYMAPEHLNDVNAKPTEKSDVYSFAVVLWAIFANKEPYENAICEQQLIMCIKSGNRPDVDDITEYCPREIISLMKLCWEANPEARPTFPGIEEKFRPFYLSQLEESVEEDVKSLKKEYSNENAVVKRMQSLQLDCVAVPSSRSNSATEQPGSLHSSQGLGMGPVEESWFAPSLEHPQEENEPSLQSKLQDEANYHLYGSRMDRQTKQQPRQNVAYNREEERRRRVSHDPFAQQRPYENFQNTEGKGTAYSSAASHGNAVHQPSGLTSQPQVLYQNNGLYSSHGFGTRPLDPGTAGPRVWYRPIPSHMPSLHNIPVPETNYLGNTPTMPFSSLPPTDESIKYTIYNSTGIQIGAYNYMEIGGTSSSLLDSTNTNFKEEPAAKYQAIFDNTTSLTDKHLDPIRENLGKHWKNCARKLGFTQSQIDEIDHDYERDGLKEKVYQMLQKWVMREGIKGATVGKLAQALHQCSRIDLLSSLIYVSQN

Target: nLuc-RIPK1 (Homo sapiens, UniProt Q13546)
Assay: NanoBRET-based in-cell RIPK1 target engagement assay
Settings: read-out: Kd between the tracer and RIPK1; tracer titrated in HEK293T cells expressing nLuc-RIPK1
Protocol: Fig. 2 LD4172, a RIPK1 PROTAC, induces potent and highly specific degradation of RIPK1 in a panel of cell lines. A Chemical structures of RIPK1 PROTAC LD4172 and its negative control, LD4172-NC. […] B Quantification of RIPK1 levels in Jurkat and B16F10 cells treated with various concentrations of LD4172 for 24 h, analyzed by Western blot. Results are representative of three independent experiments. Source data are provided as a Source Data file. C The DC50 and Dmax values of LD4172 were determined in various human and mouse cell lines. The screening of LD4172 across different cell types was conducted in a single experiment. DC50 represents the concentration at which 50% of RIPK1 is degraded, while Dmax indicates the maximum level of degradation achieved. […] E Quantification of RIPK1 degradation and resynthesis from (D). […] G Time-resolved fluorescence resonance energy transfer (TR-FRET) biochemical binding assay for RIPK1. […] Graph bars represent mean ± SD, and statistical significance was determined using a two-tailed unpaired t-test with P values indicated. […]
To elucidate the formation of a binary complex during RIPK1 degradation, we developed a competitive Nano-Bioluminescence Resonance Energy transfer (NanoBRET)-based target engagement (TE) assay to quantify the binding between RIPK1 and LD4172 in cells[14]–[16]. […]

In the case of Nc1ncnc2c1c(-c1ccc3c(c1)CCN3C(=O)Cc1cccc(OC(F)(F)F)c1)cn2CCCNC(=O)CCc1ccc2n1[B-](F)(F)[N+]1=C(c3ccc[nH]3)C=CC1=C2, the Kd is reported as 500 nM.
